Our source for the Kd values is article PMC3852005 (2013).

Changes are numbered by the printed parent chain. Where no end group is shown, it is not given here.

This assay addresses T1, FxFG Nup repeat peptide (also: chloride salt).
T1 chain: DSGFSFGSK
Briefly: ITC.

B1: G3BP1 NTF2-like domain 1-139 (protein)
chain: MVMEKPSPLLVGREFVRQYYTLLNQAPDMLHRFYGKNSSYVHGGLDSNGKPADAVYGQKEIHRKVMSQNFTNCHTKIRHVDAHATLNDGVVVQVMGLLSNNNQALRRFMQTFVLAPEGSVANKFYVHNDIFRYQDEVFG
As for B1, the equilibrium dissociation constant (Kd) is 115 µM.

B2: G3BP1 NTF2-like domain 1-139 (protein)
chain: B1 chain with F15A
As for B2, the Kd is 670 µM.
